Source: ChEMBL document CHEMBL1138502, “Discovery and biological evaluation of novel cyanoguanidine P2X(7) antagonists with analgesic activity in a rat model of neuropathic pain” (J Med Chem, 2009)

Molecular target: T1, P2X purinoceptor 7 (Rattus norvegicus, UniProt Q64663)
T1 sequence (Q64663 whole entry): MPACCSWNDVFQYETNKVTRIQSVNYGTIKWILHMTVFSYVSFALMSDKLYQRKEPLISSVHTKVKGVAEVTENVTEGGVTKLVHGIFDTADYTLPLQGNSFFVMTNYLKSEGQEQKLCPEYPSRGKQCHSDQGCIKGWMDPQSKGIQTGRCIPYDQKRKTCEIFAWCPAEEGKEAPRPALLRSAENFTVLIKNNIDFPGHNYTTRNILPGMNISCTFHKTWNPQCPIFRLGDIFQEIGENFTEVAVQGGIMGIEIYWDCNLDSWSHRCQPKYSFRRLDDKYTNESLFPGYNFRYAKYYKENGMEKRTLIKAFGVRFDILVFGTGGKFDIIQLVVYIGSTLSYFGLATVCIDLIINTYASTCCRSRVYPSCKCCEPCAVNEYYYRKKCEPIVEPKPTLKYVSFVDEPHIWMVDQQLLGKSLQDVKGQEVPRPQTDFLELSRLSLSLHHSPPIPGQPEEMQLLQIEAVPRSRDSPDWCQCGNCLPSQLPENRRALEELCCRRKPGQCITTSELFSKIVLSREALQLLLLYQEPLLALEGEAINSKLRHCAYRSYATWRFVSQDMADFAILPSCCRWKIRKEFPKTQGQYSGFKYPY
Assay: Antagonist activity at rat cloned P2X7 receptor expressed in HEK293 cells assessed as inhibition of calcium flux by FLIPR assay
Assay type: functional, cell-based
Outline: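 Calcium influx read on a fluorometric imaging plate reader with Fluo-4 as the calcium-sensing dye. The P2X7 agonist was benzoylbenzoic ATP (BzATP). pIC50 values are the mean of two experiments unless otherwise indicated; some values are the mean of more than two experiments, with standard deviation shown.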

With `COc1ccc(CC(=O)NC(N/C(=N/C#N)Nc2cccc3ncccc23)C(C)(C)C)cc1OC` (stereo unspecified) the IC50 was 20 nM.
